Our source for the activity change, negative = inhibition values is PubChem BioAssay AID504339 (National Center for Advancing Translational Sciences (NCATS), 2011).

Sequences of proteins named here, by UniProt entry; tags and fusion partners are left off.
UniProt O75164, whole entry: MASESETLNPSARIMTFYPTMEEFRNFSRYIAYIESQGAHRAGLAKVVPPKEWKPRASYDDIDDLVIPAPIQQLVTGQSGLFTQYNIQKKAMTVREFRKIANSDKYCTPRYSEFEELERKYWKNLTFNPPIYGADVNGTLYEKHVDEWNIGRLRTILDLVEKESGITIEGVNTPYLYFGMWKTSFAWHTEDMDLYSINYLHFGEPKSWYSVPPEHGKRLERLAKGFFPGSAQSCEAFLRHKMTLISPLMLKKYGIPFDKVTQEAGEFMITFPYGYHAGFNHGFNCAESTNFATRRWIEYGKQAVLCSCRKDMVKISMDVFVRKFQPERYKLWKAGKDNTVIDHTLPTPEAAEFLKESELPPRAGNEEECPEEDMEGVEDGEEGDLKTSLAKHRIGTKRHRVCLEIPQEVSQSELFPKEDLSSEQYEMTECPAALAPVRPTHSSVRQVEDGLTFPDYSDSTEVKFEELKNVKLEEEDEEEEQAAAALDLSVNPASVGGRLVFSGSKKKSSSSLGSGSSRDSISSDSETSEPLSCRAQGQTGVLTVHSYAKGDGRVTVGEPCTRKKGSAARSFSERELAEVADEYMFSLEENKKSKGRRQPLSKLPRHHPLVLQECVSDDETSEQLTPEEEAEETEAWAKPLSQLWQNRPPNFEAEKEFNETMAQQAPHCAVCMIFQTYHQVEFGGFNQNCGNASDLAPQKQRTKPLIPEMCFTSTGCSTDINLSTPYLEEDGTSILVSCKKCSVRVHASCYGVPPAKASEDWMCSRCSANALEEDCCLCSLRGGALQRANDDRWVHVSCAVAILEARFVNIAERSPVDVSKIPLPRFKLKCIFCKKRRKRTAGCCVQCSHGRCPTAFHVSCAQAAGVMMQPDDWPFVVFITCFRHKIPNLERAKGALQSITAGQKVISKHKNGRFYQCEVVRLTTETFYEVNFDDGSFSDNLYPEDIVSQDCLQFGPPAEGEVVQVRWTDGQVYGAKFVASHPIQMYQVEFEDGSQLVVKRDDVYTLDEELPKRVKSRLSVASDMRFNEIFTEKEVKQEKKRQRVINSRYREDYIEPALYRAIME

This is a selection; strong and weak results do not stand in their true shares. Records with an inconclusive call do not appear. Calls of active or inactive are those of the source. The call rests on the fitted dose curve; in most records, active means well fitted inhibition curve with a large enough effect; inconclusive means small, poorly fitted or top-dose-only effect; inactive means no such curve, though single readings can be large or run the other way.
On the % scale 0 is the no-effect control and ±100 the full control effect.

In this experiment the target is Lysine-specific demethylase 4A (Homo sapiens) (UniProt O75164). The experiment in a line: qHTS Assay for Inhibitors of JMJD2A-Tudor Domain. Further: nearly all actives have a fitted effect of over 50% in size. The note with it: AlphaScreen JMJD2A-Tudor / H3K4me3 peptide binding; at 114 µM (top of the series).
As to `COP1(=S)c2c(C)nn(CCC#N)c2N=C(c2ccc(F)cc2)N1C` (stereo unspecified), the activity change, negative = inhibition was inactive: -11%.
